Key:
[1] = Relative volatility, separation of m-xylene from o-xylene, vapor-liquid equilibrium still
[2] = Relative volatility, separation of p-xylene from m-xylene, vapor-liquid equilibrium still; settings: * brings the m-xylene out as overhead (m-xylene to p-xylene)

## N#CCCCCC#N [Adiponitrile]
[1]
  Relative Volatility: 1.21

## CCCCCCCCCCO [1-Decanol]
[2]
  Relative Volatility: 1.21
[1]
  Relative Volatility: 1.21

## CC(C)CCCCCCCO [Isodecanol (EXXON), Isodecanol]
[2]
  Relative Volatility: 1.21

## CC(C)CCCCCCCO [Isodecanol]
[2]
  Relative Volatility: 1.16

Source: US5094723A, “Separation of m-xylene from p-xylene or o-xylene by extractive distillation with alcohols” (priority 1991, dated 1992)
